# According to publication PMC2890073 (Immunogenetics, 2010):
# Entries after “also recorded” stand apart in the source; their conditions may differ.
# Test system: Mamu-B*08301
# Assay type: binding, Chinese rhesus macaque (Macaca mulatta)
sequence,measurement,value
KSINKVYGR [Peptide 3035.0857],direct binding of radiolabeled ligand to purified Mamu-B*08301,significant binding; also recorded: did bind
